Data published in patent US12668638B2, “Antibodies that bind EGFR and cMET” (Merus B.V., priority 2017, dated 2026).

Legend:
[1] = tested on: MKN-45 (EGFR-low, cMET-amplified); assay: ADCC Bioassay (Promega), MKN-45 target cells; type: cell-based; details: 10 μg/ml to 1 ng/ml, 6 hours
Procedure: (§1) The ADCC activity of the 24 cMetxEGFR bispecifics was tested to the tumor cell lines N87 (EGFR-high, cMET-low) and MKN-45 (EGFR-low, cMET-amplified). The ADCC assay was performed using the Promega ADCC Bioassay kit in 384-well plate format. Antibodies were tested in duplicate at 9 different concentrations in semi-log serial dilutions ranging from 10 μg/ml to 1 ng/ml.
(§2) Antibodies or assay medium control (no IgG) were incubated for 6 hours of induction at 37° C. with ADCC effector cells, and target cells (N87 or MKN-45). Luciferase activity was quantified using Bio-Glo luciferase reagent.

[2] = tested on: N87 (EGFR-high, cMET-low); assay: ADCC Bioassay (Promega), N87 target cells; type: cell-based; details: 10 μg/ml to 1 ng/ml, 6 hours
Procedure: as §1, §2

cetuximab: reference anti-EGFR monoclonal antibody
ADCC activity [1]: dose-dependent ADCC activity
ADCC activity [2]: dose-dependent ADCC activity
